How the values were obtained:
[1] = test system: rat myocardial ischemia-reperfusion model; experiment: rat myocardial ischemia-reperfusion model (30-min coronary occlusion, 4-hr reperfusion), infarct size; assay type: in vivo; conditions: CGRP or terbutaline alone, late ischemia-early reperfusion
Excerpt: N=6 rats/group. NS: not significant; **: p<0.01. […] Yellow zone within the red is the infarcted area. Red zone is the area-at-risk supplied by the occluded left anterior descending coronary artery. Blue zone is non-risk zone supplied by no-occluded right and circumflex coronary arteries. Infarct size is normalized as the ration of yellow-area/red-area. Acute infarction-reperfusion model consists of 30-minute occlusion of the left anterior descending coronary artery followed by four-hour reperfusion. Infarct-size was quantified at the end of four-hour reperfusion. N=6 rats/group. Inventors used rat MI model (30-min ischemia and 4 h reperfusion). […] The effect of combination therapy on myocyte protection was further assessed in a simulated ischemia-reperfusion model of isolated rat ventricular myocytes (2-hr ischemia and 1-hr reperfusion). […] The mechanisms underlying combination therapy were determined by assessing myocardial PKA and PKC activity in normal rats. […] (FIG. 1) In comparison, PKC activity (assessed by PKC translocation) was unchanged in the first 5-min of the drug infusion. […] Arterial blood pressure and heart rate will be monitored continuously throughout the experiments. […] The areas of ischemia and necrosis in each slice are determined by planimetry, converted into percentages of the whole for each slice, and multiplied by the weight of the slice.

[2] = test system: PKA; experiment: myocardial PKA activity after IV infusion in normal rats; assay type: in vivo, rat; conditions: 10-min tail vein infusion, peaked at 5-min post-infusion, ventricular tissue
Experimental: Saline, terbutaline, CGRP or the combination (T+CGRP) was infused for 10-min via rat tail vein. One or 5 min after infusion, the ventricular tissues were harvested for PKA assay (Huang et al., 2007a). T: terbutaline. **: p<0.01, *: p<0.05.
Inventors used rat MI model (30-min ischemia and 4 h reperfusion). Pre-ischemic infusion (10-min) of the β2-AR blocker ICI-118551 (100 μg/kg/min), CGRP-receptor blocker CGRP8-37 (3 ng/kg/min), or their combination to the rats increased IS by 44%, 36%, and 72%, respectively (p<0.01, n=8/group). The β2-AR agonist terbutaline (100 μg/kg/min) and CGRP (3 ng/kg/min) which were co-infused from the last 5-min of ischemia to the first 5-min of reperfusion reduced IS by 74% (p<0.01, n=4/group). […] The effect of combination therapy on myocyte protection was further assessed in a simulated ischemia-reperfusion model of isolated rat ventricular myocytes (2-hr ischemia and 1-hr reperfusion). Compared with saline control, the application of CGRP (1 nmol/L)+terbutaline (100 nmol/L) at 30- and 60-min after ischemia reduced cell death by 11% and 9% (p<0.01) respectively. […] The mechanisms underlying combination therapy were determined by assessing myocardial PKA and PKC activity in normal rats. […] (FIG. 1) In comparison, PKC activity (assessed by PKC translocation) was unchanged in the first 5-min of the drug infusion.

[3] = test system: isolated rat ventricular myocytes; experiment: simulated ischemia-reperfusion of isolated rat ventricular myocytes (2-hr hypoxia, 1-hr re-oxygenation), myocyte death; assay type: cell-based; conditions: CGRP or terbutaline alone
Excerpt: FIG. 4 Thirty minutes after the onset of ischemia, administration of milrinone (4.7 μmol/L) to ventricular myocytes reduces myocute death by 11% compared to saline control. The milrinone-induced myocyte protection is abolished in those cells pretreated with the PKA inhibitor Rp-CAMP (100 μmol/L). In vitro myocyte ischemia/reperfusion study consists of 2-hour hypoxia followed by 1-hour re-oxygenation. Hypoxia is created by layering mineral oil over the cells. Re-oxygenation is made by removal of the oil. Myocyte death is quantified at the end of 1-hour reperfusion. (Huang, 2007b). **: p<0.01.
Inventors used rat MI model (30-min ischemia and 4 h reperfusion). Pre-ischemic infusion (10-min) of the β2-AR blocker ICI-118551 (100 μg/kg/min), CGRP-receptor blocker CGRP8-37 (3 ng/kg/min), or their combination to the rats increased IS by 44%, 36%, and 72%, respectively (p<0.01, n=8/group). […] The effect of combination therapy on myocyte protection was further assessed in a simulated ischemia-reperfusion model of isolated rat ventricular myocytes (2-hr ischemia and 1-hr reperfusion). […] The mechanisms underlying combination therapy were determined by assessing myocardial PKA and PKC activity in normal rats. […] (FIG. 1) In comparison, PKC activity (assessed by PKC translocation) was unchanged in the first 5-min of the drug infusion. […]

Substance: calcitonin gene-related peptide (ACDTATCVTHRLAGLLSRSGGVVKNNFVPTNVGSKAF; Calcitonin gene-related peptide 1; UniProt P06881 83-119, looked up) [CGRP]
- effect on infarct size (IS) of single agent (in words) [1]: did not reduce IS
- increase of PKA activity [2]: 10%
- myocyte survival benefit of single agent (in words) [3]: no myocyte survival benefit

From US8415384B2, “Reducing myocardial reperfusion injury by the combination therapy of protein kinase A activation and B1-adrenergic receptor blockade” (The Board of Regents of the University of Texas System, priority 2008, dated 2013)
